Reference: patent publication US20200239879A1

The chains behind the UniProt entries cited, without tags or fusion partners.
UniProt Q99ZW2, whole entry: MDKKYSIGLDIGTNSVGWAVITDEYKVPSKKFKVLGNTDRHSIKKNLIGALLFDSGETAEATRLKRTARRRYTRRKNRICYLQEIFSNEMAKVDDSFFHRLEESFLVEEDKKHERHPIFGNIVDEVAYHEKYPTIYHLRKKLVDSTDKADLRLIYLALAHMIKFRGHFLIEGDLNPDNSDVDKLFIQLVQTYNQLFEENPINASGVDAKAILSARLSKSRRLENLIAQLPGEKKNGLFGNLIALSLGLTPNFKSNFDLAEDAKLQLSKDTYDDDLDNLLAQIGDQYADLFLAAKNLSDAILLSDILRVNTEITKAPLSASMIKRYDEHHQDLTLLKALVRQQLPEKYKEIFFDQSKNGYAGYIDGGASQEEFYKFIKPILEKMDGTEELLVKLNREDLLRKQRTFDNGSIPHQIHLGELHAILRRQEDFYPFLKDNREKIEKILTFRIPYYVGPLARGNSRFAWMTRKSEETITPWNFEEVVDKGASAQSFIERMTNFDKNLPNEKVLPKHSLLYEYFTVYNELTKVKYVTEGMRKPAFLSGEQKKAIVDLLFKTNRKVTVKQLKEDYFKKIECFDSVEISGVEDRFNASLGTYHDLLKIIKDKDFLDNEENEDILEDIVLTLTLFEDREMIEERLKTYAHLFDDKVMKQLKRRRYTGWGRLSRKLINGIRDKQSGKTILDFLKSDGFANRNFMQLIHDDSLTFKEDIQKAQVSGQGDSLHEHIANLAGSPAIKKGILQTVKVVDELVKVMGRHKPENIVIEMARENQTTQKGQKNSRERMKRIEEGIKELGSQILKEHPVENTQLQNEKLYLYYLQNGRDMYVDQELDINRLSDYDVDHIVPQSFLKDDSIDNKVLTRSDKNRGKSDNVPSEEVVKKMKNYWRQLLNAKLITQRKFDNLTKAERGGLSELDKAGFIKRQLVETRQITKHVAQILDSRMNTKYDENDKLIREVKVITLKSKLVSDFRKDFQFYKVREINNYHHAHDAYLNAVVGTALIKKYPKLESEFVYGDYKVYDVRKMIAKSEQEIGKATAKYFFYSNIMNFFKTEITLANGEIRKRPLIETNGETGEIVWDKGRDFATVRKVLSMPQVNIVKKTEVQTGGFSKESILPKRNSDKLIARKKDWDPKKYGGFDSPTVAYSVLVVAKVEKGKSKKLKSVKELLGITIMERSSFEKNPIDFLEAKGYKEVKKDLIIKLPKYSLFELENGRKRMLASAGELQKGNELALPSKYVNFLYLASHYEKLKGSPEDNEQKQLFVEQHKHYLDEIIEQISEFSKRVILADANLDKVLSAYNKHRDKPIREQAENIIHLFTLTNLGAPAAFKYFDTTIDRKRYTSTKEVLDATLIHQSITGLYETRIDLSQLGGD

Biological target: Streptococcus pyogenes Cas9 (SpCas9) (Streptococcus pyogenes) (UniProt Q99ZW2)
Experiment: cell-based or functional assay

AcrIIA4 from Listeria monocytogenes gave an IC50 (Spinach in vitro transcription assay, inhibition of SpCas9 nuclease activity, 5 nM SpCas9) of 9.1 nM.
